# Antibody variant affinities, Ab-14 light chain, assay 1

All variants were tested on one target, the spike HR2 peptide PDVDLGDISGINAS (SARS-CoV-2).

The variants keep the heavy chain, the linker and the frameworks of Ab-14 (scFv order VH, a 15-residue (Gly4Ser)3 linker, VL).
VH: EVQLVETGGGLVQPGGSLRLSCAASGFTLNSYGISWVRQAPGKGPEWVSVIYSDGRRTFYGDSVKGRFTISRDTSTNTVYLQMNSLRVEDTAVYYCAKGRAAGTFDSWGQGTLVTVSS
VL: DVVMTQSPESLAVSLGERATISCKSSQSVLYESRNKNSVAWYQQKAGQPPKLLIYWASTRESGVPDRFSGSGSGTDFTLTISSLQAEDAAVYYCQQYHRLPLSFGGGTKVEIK

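In library AAYL50, one, two or three CDR residues were substituted; doubles and triples were drawn at random. AlphaSeq pools MATa yeast showing the antibodies with MATalpha yeast showing the peptide. After mating in shaken culture at 30 °C for 16 h, diploids were selected and their barcode pairs sequenced. The ratio of observed to expected reads was calibrated, replicate by replicate, on BCL2-family standards whose Kd was known from biolayer interferometry. The assay was run in three technical replicates.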

Variants are written as CDR1, CDR2 and CDR3 of the light chain (limits as in the source). Parent: KSSQSVLYESRNKNSVA, WASTRES, QQYHRLPLS.
Values are log10 of the apparent Kd in nM; lower means stronger binding.
The mean shown is taken over the replicates in which the pair was detected.
An entry "nd" has no value in the source: the pair was not observed among the diploids in any replicate. This suggests poor binding but is not conclusive.

{"CDR-L1": "KSSQSVLYESRLKNSVA", "CDR-L2": "WAITRES", "CDR-L3": "QQYHRLPLS", "mean log10 Kd (nM)": "2.46", "replicates with signal": "3 of 3"}
{"CDR-L1": "KSSQSVLYESRNKNSVA", "CDR-L2": "WASTGES", "CDR-L3": "QQYPRLPLH", "mean log10 Kd (nM)": "nd", "replicates with signal": "0 of 3"}
{"CDR-L1": "KLSQSVLYESRNKNSVA", "CDR-L2": "DASTRES", "CDR-L3": "QQYHGLPLS", "mean log10 Kd (nM)": "-0.48", "replicates with signal": "3 of 3"}
{"CDR-L1": "KSSQSVLYESRNKNSVA", "CDR-L2": "WTSTSES", "CDR-L3": "QQYHRTPLS", "mean log10 Kd (nM)": "nd", "replicates with signal": "0 of 3"}
{"CDR-L1": "KSSQSVYYESRNKNSVA", "CDR-L2": "WAHWRES", "CDR-L3": "QQYHRLPLS", "mean log10 Kd (nM)": "2.22", "replicates with signal": "3 of 3"}
{"CDR-L1": "KSSQSVLYESRNKNVVN", "CDR-L2": "WASSRES", "CDR-L3": "QQYHRLPLS", "mean log10 Kd (nM)": "4.16", "replicates with signal": "1 of 3"}
{"CDR-L1": "KSSQSVLDEKRNKNSVA", "CDR-L2": "WASDRES", "CDR-L3": "QQYHRLPLS", "mean log10 Kd (nM)": "nd", "replicates with signal": "0 of 3"}
{"CDR-L1": "KSSQSVLYESRNKNSVA", "CDR-L2": "WASTRNS", "CDR-L3": "QQYHRLHIS", "mean log10 Kd (nM)": "nd", "replicates with signal": "0 of 3"}
{"CDR-L1": "KSPQSVLYESRNKNSVA", "CDR-L2": "WASTRES", "CDR-L3": "QQYHRLHLS", "mean log10 Kd (nM)": "1.61", "replicates with signal": "3 of 3"}
{"CDR-L1": "KSSQSVLYESRRKNSVA", "CDR-L2": "WVSTRES", "CDR-L3": "QQYHRIPLS", "mean log10 Kd (nM)": "4.39", "replicates with signal": "2 of 3"}
{"CDR-L1": "KSSQSVLYEKRNKNSVA", "CDR-L2": "WASTRES", "CDR-L3": "QYYHRLPLL", "mean log10 Kd (nM)": "3.27", "replicates with signal": "1 of 3"}
{"CDR-L1": "KSSQSVLYESRNKNLVA", "CDR-L2": "WWSTLES", "CDR-L3": "QQYHRLPLS", "mean log10 Kd (nM)": "nd", "replicates with signal": "0 of 3"}
{"CDR-L1": "KSSQSVLYESRNKNSVA", "CDR-L2": "WASTRNS", "CDR-L3": "KQYHRLPLS", "mean log10 Kd (nM)": "2.53", "replicates with signal": "3 of 3"}
{"CDR-L1": "KSSGSVCYESRNKNSVA", "CDR-L2": "WASTRES", "CDR-L3": "QQYHRLPMS", "mean log10 Kd (nM)": "2.95", "replicates with signal": "3 of 3"}
{"CDR-L1": "KSSLSVDYESRNKNSSA", "CDR-L2": "WASTRES", "CDR-L3": "QQYHRLPLS", "mean log10 Kd (nM)": "5.25", "replicates with signal": "1 of 3"}
{"CDR-L1": "KSSSSVLYESRNKNSVA", "CDR-L2": "WASTREK", "CDR-L3": "QQYLRLPLS", "mean log10 Kd (nM)": "1.79", "replicates with signal": "3 of 3"}
{"CDR-L1": "KSSQSVLYESRNKNSVA", "CDR-L2": "WASTTES", "CDR-L3": "QQYSRLPLS", "mean log10 Kd (nM)": "3.54", "replicates with signal": "3 of 3"}
{"CDR-L1": "KSSQVVLYESINKNSVA", "CDR-L2": "WASTRES", "CDR-L3": "QQYHRLPLL", "mean log10 Kd (nM)": "3.64", "replicates with signal": "3 of 3"}
{"CDR-L1": "KSSQSVLYESRNKWSVA", "CDR-L2": "WACTREW", "CDR-L3": "QQYHRLPLS", "mean log10 Kd (nM)": "nd", "replicates with signal": "0 of 3"}
{"CDR-L1": "KSSQSLLYESRNTNSVA", "CDR-L2": "WASTRES", "CDR-L3": "QQYHRLCLS", "mean log10 Kd (nM)": "3.62", "replicates with signal": "3 of 3"}
{"CDR-L1": "KSSQSVLYESRNKNSVA", "CDR-L2": "WATTRES", "CDR-L3": "QQYHPLPRS", "mean log10 Kd (nM)": "4.78", "replicates with signal": "3 of 3"}
{"CDR-L1": "KSSQSVLYEDQNKNYVA", "CDR-L2": "WASTRES", "CDR-L3": "QQYHRLPLS", "mean log10 Kd (nM)": "1.91", "replicates with signal": "3 of 3"}
{"CDR-L1": "KSSQSVLYESRNKNSLA", "CDR-L2": "SASSRES", "CDR-L3": "QQYHRLPLS", "mean log10 Kd (nM)": "0.61", "replicates with signal": "3 of 3"}
{"CDR-L1": "KSSQDVLYECRNKVSVA", "CDR-L2": "WASTRES", "CDR-L3": "QQYHRLPLS", "mean log10 Kd (nM)": "nd", "replicates with signal": "0 of 3"}
{"CDR-L1": "KSSQWVRYESRNKNSVA", "CDR-L2": "WASTREF", "CDR-L3": "QQYHRLPLS", "mean log10 Kd (nM)": "3.29", "replicates with signal": "1 of 3"}
{"CDR-L1": "KSSQSVLPESRNKNSVA", "CDR-L2": "WAGTQES", "CDR-L3": "QQYHRLPLS", "mean log10 Kd (nM)": "4.54", "replicates with signal": "3 of 3"}
{"CDR-L1": "KSSQSVIYESRNKNSIA", "CDR-L2": "WACTRES", "CDR-L3": "QQYHRLPLS", "mean log10 Kd (nM)": "nd", "replicates with signal": "0 of 3"}
{"CDR-L1": "KSSQSVLYESRNKNCVA", "CDR-L2": "WASTIHS", "CDR-L3": "QQYHRLPLS", "mean log10 Kd (nM)": "4.15", "replicates with signal": "3 of 3"}
{"CDR-L1": "KSSQQVLYESRNKNSVA", "CDR-L2": "WKSTREA", "CDR-L3": "QQYHRLPLS", "mean log10 Kd (nM)": "2.40", "replicates with signal": "3 of 3"}
{"CDR-L1": "KNSQTVLYESRNKNSTA", "CDR-L2": "WASTRES", "CDR-L3": "QQYHRLPLS", "mean log10 Kd (nM)": "4.89", "replicates with signal": "1 of 3"}

Three control strains display no target. For library AAYL50, 18% of the pairings with them gave a signal, with a median of 4.19 and one signal in twenty below 2.99, so weak values seen in few replicates may be background.
Parent in this assay: reference entry 0.65, copy in this library 1.68.

Reference: Engelhart et al. 2022, doi:10.1038/s41597-022-01779-4. File: FLAb, binding data.